Values of other authors in paper PMC7461116, “Synthesis, Anticonvulsant and Antinociceptive Activity of New Hybrid Compounds: Derivatives of 3-(3-Methylthiophen-2-yl)-pyrrolidine-2,5-dione” (International Journal of Molecular Sciences, 2020).

Test system: motor impairment on rotarod
Settings: mice ip, reference AEDs; cited from earlier work

Q: With `CCCC(CCC)C(=O)O` [VPA, valproic acid] as the compound, how does the “NT TD50” value read?
A: 430.8 (407.9–454.9) mg/kg
